The target in test [1] is T1, Polyunsaturated fatty acid lipoxygenase ALOX15 (Oryctolagus cuniculus, UniProt P12530).
T1 sequence (P12530 whole entry): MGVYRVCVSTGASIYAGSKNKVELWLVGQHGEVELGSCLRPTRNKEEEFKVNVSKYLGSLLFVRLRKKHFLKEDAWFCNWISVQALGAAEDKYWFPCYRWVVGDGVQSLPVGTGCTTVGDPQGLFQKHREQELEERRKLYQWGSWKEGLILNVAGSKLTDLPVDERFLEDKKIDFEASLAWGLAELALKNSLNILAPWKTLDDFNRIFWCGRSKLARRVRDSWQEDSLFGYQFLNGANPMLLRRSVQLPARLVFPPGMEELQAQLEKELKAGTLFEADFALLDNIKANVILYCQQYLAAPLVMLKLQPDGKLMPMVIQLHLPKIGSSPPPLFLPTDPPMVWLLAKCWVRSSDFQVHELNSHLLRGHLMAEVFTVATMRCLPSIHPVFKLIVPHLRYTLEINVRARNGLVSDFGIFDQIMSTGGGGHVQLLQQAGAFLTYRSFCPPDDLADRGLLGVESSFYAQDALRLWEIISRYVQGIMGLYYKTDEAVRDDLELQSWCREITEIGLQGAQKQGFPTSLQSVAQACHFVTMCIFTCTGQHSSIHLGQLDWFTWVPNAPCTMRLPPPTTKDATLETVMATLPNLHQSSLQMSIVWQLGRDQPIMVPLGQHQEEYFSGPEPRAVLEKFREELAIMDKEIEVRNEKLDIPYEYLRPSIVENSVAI
Kind of test: Inhibition of rabbit 15-LO using arachidonic acid by standard colorimetric assay.

Test [2] deals with T1, Polyunsaturated fatty acid lipoxygenase ALOX15. Kind of test: Inhibition of rabbit 15-LO using linoleic acid by standard colorimetric assay.

For orientation: IC50 means the concentration needed to halve the response being measured. Low values mean inhibition by little substance, high ones a need for much substance. Regarding `CCN([C@@H]1CCN(C(C)c2ccc(F)cc2)C1)S(=O)(=O)NCCc1c(-c2cccs2)n[nH]c1-c1cnccn1` (some centres not stated), the IC50 in test [1] worked out at 3.1 nM; in test [2] it was 1.4 nM.
